# Apparent affinities of Ab-95 variants for a coronavirus HR2 peptide

Antigen: PDVDLGDISGINAS, a 14-residue peptide of the SARS-CoV-2 spike HR2 region.

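The starting antibody came from a phage panning campaign against this peptide. Variants in AAYL52 differ from the parent at up to three CDR positions; double and triple changes were sampled at random. In AlphaSeq, yeast of one mating type display the scFv and yeast of the other type display the target. Pairs that bind mate more often; barcode pairs of the diploids are counted by sequencing. Read counts were normalised to the haploid input and turned into Kd by a linear fit to BCL2-family pairs of known affinity, for each replicate. There are three technical replicates.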

Ab-95 is the parent antibody, in scFv form: VH, then a (GGGGS)3 linker, then VL. The heavy chain is unchanged in all variants.
VH: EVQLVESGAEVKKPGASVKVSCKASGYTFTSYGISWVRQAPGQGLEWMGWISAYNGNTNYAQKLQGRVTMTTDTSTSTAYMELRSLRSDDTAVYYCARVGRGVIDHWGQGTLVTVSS
VL: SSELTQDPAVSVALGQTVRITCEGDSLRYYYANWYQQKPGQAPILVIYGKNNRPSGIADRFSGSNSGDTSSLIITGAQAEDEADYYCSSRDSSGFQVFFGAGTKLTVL

Variants are written as CDR1, CDR2 and CDR3 of the light chain (limits as in the source). Parent: EGDSLRYYYAN, GKNNRPS, SSRDSSGFQVF. Every variant below is changed at Y30 of the VL (sequential numbering). Values are log10 of the apparent Kd in nM; lower means stronger binding. Averages over replicates are reported, and they cover detected replicates only.

For AGDTLRYRYAN / GKNNRPS / SSRDSSGFQVF, the assay gave 1.75 (3 of 3 replicates; controls 1 of 9). For EGDSLRYMYAN / GKNNRPS / CSRDSSGFQVA, the assay gave 2.73 (3 of 3 replicates; controls 0 of 9). The variant EGDSLEYVYAN / GKNNRPS / QSRDSSGFQVF showed 4.73 (2 of 3 replicates; controls 2 of 9). The variant RGDSLRYRYAN / GCNNRPS / SSRDSSGFQVF gave 1.53 (3 of 3 replicates; controls 4 of 9). The variant EGDSWRYHYAN / GKNNRPS / SARDSSGFQVF showed 3.45 (2 of 3 replicates; controls 3 of 9). The variant EGDSLRYAYAN / GKNNRPS / SSRDSIGFQVF showed 0.83 (3 of 3 replicates; controls 1 of 9). With EGDSLRYSYAN / GKNNRPT / SSRDSSGFQVF the result was 0.90 (3 of 3 replicates; controls 3 of 9). With EGDSLRYWYAN / GKNNRPS / SSRDWSGQQVF the result was 2.72 (3 of 3 replicates; controls 3 of 9). With EGDSLRYHYAN / GKNNRPS / SSRDSSGFQVF the result was 0.77 (3 of 3 replicates; controls 7 of 9).

The variant EGDSLRYLYAN / GKNNRPS / SSRDSKGFKVF showed 2.01 (3 of 3 replicates; controls 0 of 9). For EGDSLRYIYAN / GKNNRPS / SSRDSSGFQVI, the assay gave 3.46 (1 of 3 replicates; controls 1 of 9). For EGDSLRYSYAN / GKNNRPS / SSRDSSGCQVF, the assay gave 3.50 (2 of 3 replicates; controls 3 of 9). The variant EGDSLRYKYAN / GKNNRPS / SSRDSSGFQVF showed 0.97 (3 of 3 replicates; controls 2 of 9). With EIDSLRYVYAN / GKNNRPS / SSRDSSGFMVF the result was 3.65 (2 of 3 replicates; controls 3 of 9). The variant IGDSLRYRYAN / GKNNRPS / SSRDSRGFQVF showed 1.76 (3 of 3 replicates; controls 1 of 9). The variant EGDSLRYPYAN / GKNNRPS / SSRCSSGFQVW showed 3.42 (1 of 3 replicates; controls 4 of 9). The variant EGDSLRYTYAN / GKQNRPS / SSRDSSGHQVF gave 1.81 (3 of 3 replicates; controls 6 of 9). With EGDSLRRDYAN / GKNNRPS / SSRDSSFFQVF the result was 3.42 (3 of 3 replicates; controls 3 of 9).

For EGDSLRYGYAN / GKNNRPS / SSPDSSGFQVF, the assay gave 1.56 (3 of 3 replicates; controls 1 of 9). The variant EGDSLRYTYAN / GKNNCPS / SSRDSSGFQVF gave 2.46 (3 of 3 replicates; controls 2 of 9). For EGDSLRYIYAN / GKNNRPS / SFRRSSGFQVF, the assay gave 2.89 (2 of 3 replicates; controls 1 of 9). For EGDSLRYNYAN / GKNNRPS / SSRMSVGFQVF, the assay gave 5.29 (1 of 3 replicates; controls 4 of 9). The variant EGWSLRYPIAN / GKNNRPS / SSRDSSGFQVF gave 4.03 (2 of 3 replicates; controls 2 of 9). The variant EGNSLRYSYAN / GGNNRPS / SSRDSSGFQVF gave 0.61 (3 of 3 replicates; controls 5 of 9). For VGDSLRYEYAN / GKNNRPS / SSRDSSGFQVK, the assay gave 1.74 (3 of 3 replicates; controls 1 of 9). For EFDSLRYNYAN / GKNNRPA / SSRDSSGFQVF, the assay gave 1.32 (3 of 3 replicates; controls 3 of 9). For EGDSLRYPYAN / GKNNRPS / SSRDSSGFQAF, the assay gave 2.11 (3 of 3 replicates; controls 1 of 9).

For EGDSLRYEYAN / GKNNRPS / SSRGSSGFQVF, the assay gave 1.87 (3 of 3 replicates; controls 2 of 9). The variant EGDSLRYHYAN / GKNNRPS / SYRDSSGFQVF gave 2.12 (3 of 3 replicates; controls 2 of 9). The variant EGDSLRYVYAN / GKNGRPR / SSRDSSGFQVF gave 3.02 (3 of 3 replicates; controls 4 of 9).

In this assay the parent's reference entry averaged 2.31; its copy inside this library read 2.25. Background: pairings of library AAYL52 with three empty control strains gave a value in 28% of cases (median 3.91, 5th percentile 2.90). Values in that range, when seen in few replicates, are hard to tell from nonspecific mating. For each scFv, signals with the empty controls are counted beside the result.

Values reported by Engelhart et al. 2022, doi:10.1038/s41597-022-01779-4 (FLAb copy).